Data reported in patent publication US20100003195A1 (published 2010).

By UniProt entry, the sequences of proteins in these tests, tags left out. Residues count along the entry.
UniProt P35968, 20-764, stated change not applied: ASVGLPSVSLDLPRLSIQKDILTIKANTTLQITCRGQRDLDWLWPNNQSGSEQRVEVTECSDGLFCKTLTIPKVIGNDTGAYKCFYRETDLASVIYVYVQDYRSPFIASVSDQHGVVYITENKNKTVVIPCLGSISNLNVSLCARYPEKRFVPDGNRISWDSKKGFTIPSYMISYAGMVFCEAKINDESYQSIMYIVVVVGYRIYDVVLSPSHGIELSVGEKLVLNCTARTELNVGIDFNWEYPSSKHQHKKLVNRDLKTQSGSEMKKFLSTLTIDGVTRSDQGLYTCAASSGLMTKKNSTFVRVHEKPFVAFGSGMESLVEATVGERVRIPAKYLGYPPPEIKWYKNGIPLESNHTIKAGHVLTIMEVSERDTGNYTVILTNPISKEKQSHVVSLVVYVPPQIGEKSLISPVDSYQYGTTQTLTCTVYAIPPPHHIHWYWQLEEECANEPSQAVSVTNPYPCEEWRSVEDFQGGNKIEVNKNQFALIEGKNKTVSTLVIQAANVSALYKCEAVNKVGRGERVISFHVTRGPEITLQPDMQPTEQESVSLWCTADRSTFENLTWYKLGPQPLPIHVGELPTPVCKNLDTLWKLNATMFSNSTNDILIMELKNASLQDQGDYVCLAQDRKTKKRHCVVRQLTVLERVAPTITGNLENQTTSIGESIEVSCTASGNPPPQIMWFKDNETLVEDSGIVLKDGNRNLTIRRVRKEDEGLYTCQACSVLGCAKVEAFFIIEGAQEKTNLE

Assays:
[1] = biological target: T1, human KDR-Fc chimeric fusion (R&D Systems #357-KD-05) (human, UniProt P35968 20-764); test: said to be measured by FP against the KDRFc construct (Table 8 has 0.05 µM under BiaKD)
T1 construct: bought; also called KDR Fc fusion

[2] = biological target: T1, human KDR-Fc chimeric fusion (R&D …); test: fluorescence anisotropy, fluorescein-peptide + KDR-Fc

Kd [1]	Kd [2]	Binder
51 nM	–	AQDWYYDEILSMADQLRHAFLSGGGK (N-acetyl; C-terminal amide; fluorescein on C-terminal Lys in FP only) [SEQ ID NO:310]
–	69 nM	GDSRVCWEDSWGGEVCFRYDPGGGK (N-acetyl; C-terminal amide; fluorescein on C-terminal Lys in FP only) [SEQ ID NO:294]
–	280 nM	AGPKWCEEDWYYCMITGTGGGK (N-acetyl; C-terminal amide; fluorescein on C-terminal Lys in FP only) [SEQ ID NO:264]
